Where only a bound is given, the exact number is not on record here.

By UniProt entry, the sequences of proteins in these tests, tags left out. Residues count along the entry.
UniProt P23945, 18-695 limits assumed: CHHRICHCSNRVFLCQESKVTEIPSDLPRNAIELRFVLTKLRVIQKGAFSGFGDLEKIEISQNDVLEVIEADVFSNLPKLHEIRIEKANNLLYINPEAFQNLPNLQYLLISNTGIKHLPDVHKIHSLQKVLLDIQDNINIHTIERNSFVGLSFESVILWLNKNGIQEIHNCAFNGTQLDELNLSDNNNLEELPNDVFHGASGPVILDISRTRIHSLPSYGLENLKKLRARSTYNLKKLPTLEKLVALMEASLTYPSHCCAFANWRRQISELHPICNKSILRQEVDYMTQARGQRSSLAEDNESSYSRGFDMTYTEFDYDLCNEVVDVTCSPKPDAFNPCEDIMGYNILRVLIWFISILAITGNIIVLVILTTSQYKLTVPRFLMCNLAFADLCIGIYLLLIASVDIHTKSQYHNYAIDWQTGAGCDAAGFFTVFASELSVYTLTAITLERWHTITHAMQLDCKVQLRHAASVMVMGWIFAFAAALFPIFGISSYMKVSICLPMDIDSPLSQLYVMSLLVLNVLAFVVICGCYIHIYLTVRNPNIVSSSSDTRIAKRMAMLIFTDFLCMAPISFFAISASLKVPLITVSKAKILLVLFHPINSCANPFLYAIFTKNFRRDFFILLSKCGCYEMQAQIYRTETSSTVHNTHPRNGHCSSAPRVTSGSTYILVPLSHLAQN

In general, EC50 refers to the midpoint of the concentration-response curve.

This assay has as its target human FSH receptor (Homo sapiens, UniProt P23945). As to the kind of experiment: hFSHR CHO cAMP assay (rhFSHR-cLUC cells, FSH-stimulated cAMP, radioimmunoassay). Particulars: read-out: EC50 hFSHR CHO cAMP; inhibition of cAMP produced by EC70 dose of FSH (4.85 nM); maximum concentration 50 μM. An excerpt: Minimum Essential Medium-Alpha (MEM-alpha), fetal bovine serum (FBS), penicillin, streptomycin, geneticin, trypsin-EDTA, Hanks' Balanced Salt Solution (no Calcium chloride, Magnesium chloride, Magnesium sulfate, or phenol red; Ca-Mg free HBSS) were purchased from Gibco BRL (Gaithersburg, Md.). The cells used for the FSH bioassay (rhFSHR-cLUC) were Chinese Hamster Ovary cells (K-1; ATCC) stably transformed with human FSH receptor (pSVK-FSHr) and a cAMP luciferase reporter gene (responsive CGα-180LUC). Follicle Stimulating Hormone (Metrodin; Fertinex) was purchased from Serono, Ltd. (Norwell, Mass.).
The rhFSHR-cLUC cell cultures were maintained in MEM-Alpha supplemented with 10% heat-inactivated FBS (HIFBS), 100 U/ml penicillin, 100 μg/mL streptomycin, and included 0.1 g/L geneticin for stable cell selection.
Forty-eight hours after the cells were plated in sterile 96-well culture plates (Corning, Corning, N.Y.) the spent media was removed and 50 μl assay media (modified growth media with 2% HIFBS) containing 2 mM IBMX (3-isobutyl-1-methyl-xanthine) was added to the cells. Compounds (25 μl) in the appropriate concentration were added followed 5 minutes later by an EC70 dose of FSH (25 μl; 160 ng/ml; 4.85 nM). After 10 minutes @ 22.5° C. (room temperature) the reaction was terminated by addition of 25 μL 0.5 N hydrochloric acid to each well. The amount of cAMP produced was measured by radioimmunoassay in a FlashPlate (DuPont, Boston, Mass.). To each flash plate 60 μL flash plate buffer was added followed by 40 μL acidified cell sample or cAMP standard, followed with the addition of 100 μl ^125l-cAMP trace. The FlashPlates were sealed, incubated overnight @ room temperature, and counted in a Packard TopCount (Packard Instrument Co., Meriden, Conn.). The cAMP radioimmunoassay results were calculated using DPM conversion and log-logit transformation of % binding (Excel program).
Test compounds were solubilized in 30% dimethyl sulfoxide (DMSO) at a concentration of 10 mM before diluting to appropriate concentrations in assay medium. The final DMSO concentration in the treated cells and in the control cells was 0.75%.
For individual experiments, a set of samples were tested including a vehicle control (assay buffer), a reference compound (hFSH) at a range of concentrations designed to elicit a minimal to maximal response, and several concentrations of test compounds together with an EC70 concentration of standard (hFSH challenge). Each compound was performed in duplicates for the primary evaluation and quadruplicates for the dose-ranging experiments. The cAMP radioimmunoassay raw data (pmol) were calculated to provide average pmol cAMP produced/ml and the percent inhibition was calculated as shown below.
% Inh=[1−(Avg.pmoltest compound+standard)/(Avg.pmolstandard)]×100
EC50 values were calculated from an analysis of the concentration-inhibition data using a linear analysis of the data transformed to a log-logit format.
A general note: Cyclic AMP is a second messenger, typically raised through Gs and lowered through Gi signalling.
With `COc1cccc(CCN(CC(=O)NCc2ccc(CN)cc2)S(=O)(=O)c2ccc(-c3ccccc3Cl)cc2)c1`, the EC50 is 620 nM.
Take `CC(CN(CC(=O)NCc1ccc(CN)cc1)S(=O)(=O)c1ccc(-c2cccc(F)c2)cc1)c1ccccc1` (stereo not drawn): the EC50 is 430 nM.
Then `CC(C)c1ccc(S(=O)(=O)N(CC(=O)NCc2ccc(CN)cc2)C[C@@H](C)c2ccccc2)cc1`, with 840 nM; and `CN1CCCC1CCN(CC(=O)NCc1ccc(CN)cc1)S(=O)(=O)c1ccc(-c2ccccc2Cl)cc1` (stereo not drawn), with 14800 nM.
As for `Cc1cccc(Cl)c1-c1ccc(S(=O)(=O)N(CC(=O)NCc2ccc(CN)cc2)C[C@H](C)c2ccccc2)cc1`, the figure is 760 nM; as for `C[C@@H](CN(CC(=O)NCc1ccc(CN)cc1)C(=O)c1ccc(-c2cccc(F)c2)cc1)c1ccccc1`, 13200 nM.
As for `C[C@@H](CN(CC(=O)NCc1ccc(CN)cc1)S(=O)(=O)c1ccc(-c2ccc(C#N)cc2)cc1)c1ccccc1`, the figure is 200 nM; as for `NCCCCCCNC(=O)CN(CCc1ccc2c(c1)OCO2)S(=O)(=O)c1ccc(-c2ccccc2Cl)cc1`, 430 nM; as for `COC(CN(CC(=O)NCc1ccc(CN)cc1)S(=O)(=O)c1ccc(-c2ccccc2Cl)cc1)c1ccccc1` (stereo not drawn), 920 nM.
As for `COc1cccc(-c2ccc(S(=O)(=O)N(CC(=O)N3CCNCC3)Cc3ccccc3OC)cc2)c1`, the EC50 came to 32300 nM.
Take `COc1ccccc1CCN(CC(=O)NCc1cccc(CN)c1)S(=O)(=O)c1ccc(-c2ccccc2OC)cc1`: the EC50 worked out at 650 nM.
Then `NCCCCCCNC(=O)CN(CCc1ccccc1Cl)S(=O)(=O)c1ccc(-c2ccccc2Cl)cc1`, with 140 nM; and `NCCCCCCNC(=O)CN(CCc1ccccc1F)S(=O)(=O)c1ccc(-c2ccccc2Cl)cc1`, with 410 nM.
As for `COc1ccccc1CCN(CC(=O)N1CCNCC1)S(=O)(=O)c1ccc(-c2ccccc2)cc1`, the figure is 24300 nM.
Consider `COc1ccccc1CCN(CC(=O)NCc1ccc(CN)cc1)S(=O)(=O)c1cccc(-c2c(C)noc2C)c1`, for which the EC50 is 5650 nM.
As for `NCc1ccc(CNC(=O)CN(CCc2ccc(Cl)cc2Cl)S(=O)(=O)c2ccc(-c3ccccc3Cl)cc2)cc1`, the figure is 590 nM.
For the compound `COc1cccc(-c2ccc(S(=O)(=O)N(CC(=O)NCc3ccc(CN)cc3)C[C@H](C)c3ccccc3)cc2)c1NC(=O)C(C)(C)C`, the EC50 was found to be 580 nM.
As for `Cc1ccccc1-c1ccc(S(=O)(=O)N(CC(=O)NCc2cccc(CN)c2)C[C@@H](C)c2ccccc2)cc1`, the figure is 90 nM; as for `COc1ccccc1CCN(CC(=O)NCc1ccc(CN)cc1)S(=O)(=O)c1cccc(-c2ccccc2C)c1`, 2880 nM.
As for `Cc1cc(C)c(-c2ccc(S(=O)(=O)N(CC(=O)NCc3ccc(CN)cc3)C[C@H](C)c3ccccc3)cc2)c(C)c1` [305], the figure is 580 nM; as for `COc1ccccc1CCN(CC(=O)NCc1ccc(CN)cc1)S(=O)(=O)c1ccccc1-c1cccc(C)c1`, 5170 nM; as for `COc1ccccc1CCN(CC(=O)NCc1ccc(CN)cc1)S(=O)(=O)c1cccc(-c2cccc(Cl)c2)c1`, 2980 nM.
Then `NCCCCCCNC(=O)CN(CCc1cccc(F)c1)S(=O)(=O)c1ccc(-c2ccccc2Cl)cc1`, with 100 nM.
For `COc1cccc(-c2cccc(S(=O)(=O)N(CCc3ccccc3OC)CC(=O)NCc3ccc(CN)cc3)c2)c1`, the EC50 is 4330 nM.
Then `Cc1ccc(Cl)cc1-c1ccc(S(=O)(=O)N(CC(=O)NCc2ccc(CN)cc2)C[C@H](C)c2ccccc2)cc1`, with 370 nM; and `COc1ccccc1CN(CC(=O)N1CCNCC1)S(=O)(=O)c1ccc(-c2c(C)noc2C)cc1`, with no less than 50000 nM.
As for `COc1ccc(S(=O)(=O)N(CCc2ccccc2OC)CC(=O)NCc2ccc(CN)cc2)cc1`, the EC50 was 4980 nM.
As to `COc1ccccc1CCN(CC(=O)N1CCNCC1)S(=O)(=O)c1ccc(-c2ccc(C#N)cc2)cc1`, the EC50 was found to be 3480 nM.
In the case of `NCc1ccc(CNC(=O)CN(CCCc2ccccc2)S(=O)(=O)c2ccc(-c3ccccc3Cl)cc2)cc1`, the EC50 stood at 2500 nM.
For the compound `COc1ccccc1CN(CC(=O)N1CCNCC1)S(=O)(=O)c1ccc(-c2ccc3c(c2)OCO3)cc1`, the half-maximal effective concentration (EC50) is no less than 50000 nM.
As for `NCc1ccc(CNC(=O)CN(CCc2ccc(Cl)c(Cl)c2)S(=O)(=O)c2ccc(-c3ccccc3Cl)cc2)cc1`, the EC50 came out at 290 nM.
As for `COc1ccccc1CCN(CC(=O)NCc1ccc(CN)cc1)S(=O)(=O)c1cccc(-c2ccc(F)cc2)c1`, the figure is 6270 nM; as for `C[C@H](CN(CC(=O)NCc1ccc(CN)cc1)S(=O)(=O)c1ccc(-c2cccc(Cl)c2)cc1)c1ccccc1`, 770 nM; as for `NCc1ccc(CNC(=O)CN(CC2(c3ccc(Cl)cc3)CC2)S(=O)(=O)c2ccc(-c3cccc(F)c3)cc2)cc1`, 1100 nM.
Turning to `CCCCCc1ccc(S(=O)(=O)N(CC(=O)NCc2ccc(CN)cc2)C[C@@H](C)c2ccccc2)cc1`, the EC50 was 1380 nM.
Then `COc1ccc(CCN(CC(=O)NCc2ccc(CN)cc2)S(=O)(=O)c2ccc(-c3ccccc3Cl)cc2)cc1`, with 460 nM.
Consider `Cc1ccc(-c2ccc(S(=O)(=O)N(CC(=O)NCc3ccc(CN)cc3)C[C@@H](C)c3ccccc3)cc2)cc1`, for which the EC50 was 620 nM.
For the compound `COc1ccccc1CCN(CC(=O)NCc1ccc(CN)cc1)S(=O)(=O)c1ccccc1-c1ccc(C#N)cc1`, the EC50 came out at 27800 nM.
As for `C[C@@H](CN(CC(=O)NCc1ccc(CN)cc1)S(=O)(=O)c1ccc(-c2ccc(F)c(Cl)c2)cc1)c1ccccc1`, the figure is 420 nM; as for `COc1ccccc1CCN(CC(=O)NCc1ccc(CN)cc1)S(=O)(=O)c1cccc(-c2cccc3ccccc23)c1`, 17100 nM.
As for `NCc1ccc(CNC(=O)CN(CCc2ccccc2N)S(=O)(=O)c2ccc(-c3ccccc3Cl)cc2)cc1`, the figure is 610 nM.
Then `NCc1ccc(CNC(=O)CN(C2Cc3ccccc3C2)S(=O)(=O)c2ccc(-c3ccccc3Cl)cc2)cc1`, with 4620 nM.
Regarding `COc1ccccc1CN(CC(=O)N1CCNCC1)S(=O)(=O)c1ccc(-c2cccc(F)c2)cc1`, the EC50 is no less than 50000 nM.
Take `COc1ccc(OC)c(-c2cccc(S(=O)(=O)N(CCc3ccccc3OC)CC(=O)NCc3ccc(CN)cc3)c2)c1`: the EC50 was found to be 3430 nM.
As for `COc1ccccc1CCN(CC(=O)N1CCNCC1)S(=O)(=O)c1ccc(-c2ccncc2)cc1`, the figure is 24800 nM; as for `COc1ccccc1CCN(CC(=O)NCc1ccc(CN)cc1)S(=O)(=O)c1ccc(-c2cnc(SC)nc2)s1`, 1730 nM.
For `COc1ccccc1CCN(CC(=O)NCc1ccc(CN)cc1)S(=O)(=O)c1ccc(C(C)(C)C)cc1`, the EC50 turned out to be 31200 nM.
On to `C[C@@H](CN(CC(=O)NCc1ccc(CN)cc1)S(=O)(=O)c1ccc(Br)cc1)c1ccccc1`, for which the EC50 stood at 20000 nM.
In the case of `COc1ccccc1CCN(CC(=O)N1CCNCC1)S(=O)(=O)c1ccc(-c2cccs2)cc1`, the EC50 is 37900 nM.
Then `COc1ccc(OC)c(S(=O)(=O)N(CCc2ccccc2OC)CC(=O)NCc2ccc(CN)cc2)c1`, with 33100 nM; and `Cc1ccccc1-c1ccc(S(=O)(=O)N(CCc2ccccc2)CC(=O)NCc2ccc(CN)cc2)cc1`, with 290 nM.
Take `C[C@@H](CN(CC(=O)NCc1ccc(CN)cc1)S(=O)(=O)c1ccc(-c2csc3ccccc23)cc1)c1ccccc1`: the EC50 came to 640 nM.
Then `COc1cc(CCN(CC(=O)NCCCCCCN)S(=O)(=O)c2ccc(-c3ccccc3Cl)cc2)cc(OC)c1`, with 200 nM.
Then `C[C@@H](CN(CC(=O)NCc1ccc(CN)cc1)S(=O)(=O)c1ccc(-c2cccc(N)c2)cc1)c1ccccc1`, with 70 nM.
As for `C[C@@H](CN(CC(=O)NCc1ccc(CN)cc1)S(=O)(=O)c1ccc(-c2ccccc2F)cc1)c1ccccc1` [301], the figure is 150 nM.
On to `COc1ccccc1CCN(CC(=O)N1CCNCC1)S(=O)(=O)c1ccc(-c2cccc(N)c2)cc1`, for which the EC50 came out at 8660 nM.
In the case of `Cc1ccccc1-c1ccc(S(=O)(=O)N(CC(=O)NCCCCCN)C[C@@H](C)c2ccccc2)cc1`, the 50% effective concentration (EC50) was found to be 450 nM.
`COc1cccc(CCN(CC(=O)NCCCCCCN)S(=O)(=O)c2ccc(-c3ccccc3Cl)cc2)c1OC`: the EC50 amounted to 390 nM.
As for `NCc1ccc(CNC(=O)CN(CCc2ccc3c(c2)OCO3)S(=O)(=O)c2ccc(-c3ccccc3Cl)cc2)cc1`, the figure is 770 nM; as for `CCCc1ccc(S(=O)(=O)N(CC(=O)NCc2ccc(CN)cc2)C[C@@H](C)c2ccccc2)cc1`, 130 nM.

Values taken from patent US6583179B2, “Substituted aminoalkylamide derivatives as antagonists of follicle stimulating hormone” (Ortho-McNeil Pharmaceutical, Inc., priority 1999, dated 2003).
